Only a part is listed here, and it is no random draw. The source made the active and inactive calls. Calls come from the whole dose curve; as a rule, active = well fitted activation curve with a large enough effect; inconclusive = small, poorly fitted or top-dose-only effect; inactive = flat fitted curve, though single readings scatter.
Molecular target: Beta-2 adrenergic receptor (Homo sapiens) (UniProt P07550)
Test: qHTS assay of beta-arrestin-biased ligands of beta2-adrenergic receptor;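 note: 0% = DMSO controls and full agonism = EC100 isoproterenol or metaproterenol; nearly all actives have a fitted effect of over 65% in size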
Settings: beta-arrestin recruitment to beta2AR, cell-based reporter; at 46.1 µM (top of the series)
Excerpt: NIH Molecular Libraries Probe Production Network [MLPCN]
NIH Chemical Genomics Center [NCGC]
PI: Bryan Roth and Bob Lefkowitz
The concept of biased agonism is an emerging concept of molecular pharmacology which proposes that seven transmembrane receptors (7TMRs) or G protein-coupled receptors (GPCRs), exist in multiple signaling conformations and complexes and that ligands (either agonists or antagonists) can induce signaling biased responses for distinct signal transduction cascades.
Furthermore, accumulating evidence over the last decade has drawn attention to a novel function of beta-arrestins as signal transducers that scaffold various signaling molecules upon activation of 7TMRs. […] This beta-arrestin-biased signaling presumably leads to distinct physiological outcomes from those by G protein activation.
Additionally, the active receptor conformations which […] on this beta-arrestin signaling are likely different from those activating G protein signaling
The goal of this screening project will be to discover and optimize novel beta-arrestin-biased ligands for beta2-AR signaling. A luminescent cell-based assay for beta2-AR-mediated agonism, known as the Tango assay, has been validated in which ligand binding of a recombinant beta2-AR and subsequent recruitment of a recombinant beta-arrestin lead to the release of the transcriptional activator tTA, which upregulates transcription of a tTA-responsive luciferase gene. […] Compounds were screened as a concentration-titration series that ranged from 46 microM to 0.6 nM.
NCGC Assay Protocol Summary:
Tango cells were dispensed into white, solid, tissue-culture-treated 1536-well plates at 1500 cells/well in DMEM, containing 1% fetal bovine serum (FBS). Then, 23 nL of compounds or DMSO were delivered to each well using a pin tool. Plates were incubated at 37 degrees C, 5% CO2 for 18 hr. Then 2.5 uL luminescent substrate mix (in-house prepared: 150 mM Tris-Cl, pH 7.6, 3 mM MgCl2, 1% Triton X-100, 5 mM DTT, 0.5 mM CoA, 0.15 mM ATP, 0.44 mM D-luciferin, final concentrations) was added to each well. Plates were then incubated for 15 minutes at room temperature, and subsequently measured on a ViewLux plate reader for luminescent signal using a clear filter with a 10 second exposure and 2x binning. The %Activity was determined from the corrected luminescence values.
Concentration-response curves were fitted to the signals arising from the resulting luminescence. The concentration-effect curves were then classified based on curve quality (r2), response magnitude and degree of measured activity, and compounds were subsequently categorized based on their curve class.
Keywords: biased agonism, beta2-AR, beta-arrestin, GPCR, 7TMR, Tango, luminescence, MLSMR, MLPCN, NIH Roadmap, qHTS, NCGC

| Structure (SMILES) | activation |
| --- | --- |
| Oc1ccccc1CNc1ccccn1 | inactive: -0.226% |
| CC(=O)N1C2C3N(C(C)=O)C1C1N(C(C)=O)C(C(N1C(C)=O)N3C(C)=O)N2C(C)=O | inactive: 0.192% |
| O=[N+]([O-])c1cccc2n[nH]nc12 | inactive: -0.0189% |
| O=[N+]([O-])c1cc([N+](=O)[O-])c(CCNc2ccccc2)c([N+](=O)[O-])c1 | inactive: 0.0379% |
| CCc1nc2c(n1)c1c(non1O)c1c2no[n+]1[O-] | inactive: -0.698% |
| Cc1ccc(NP(=O)(Oc2ccccc2)Oc2ccccc2)nc1 | inactive: 0.329% |
| COc1ccc(C2=NCC(CBr)S2)cc1 (stereo not given) | inactive: 0.44% |
| CN(C)C(=O)OCCc1n(C)cc[n+]1C | inactive: -0.489% |
| CC(C)=N/N=C(\N)N[N+](=O)[O-] | inactive: -0.51% |
| CC1CCN(C(=O)Oc2c(Cl)cc(Cl)c3cccnc23)CC1 | inactive: 0.528% |
| C[N+]1=C2C=CC=CC=C2SC12C([N+](=O)[O-])=CC([N+](=O)[O-])=C[C-]2[N+](=O)[O-] (stereo not given) | inactive: 0.368% |
| Nc1ccc([As](=O)(O)c2ccc(N)cc2)cc1 | inactive: -0.83% |
| CCN(/C(=N/P(=O)(N1CCOCC1)N1CCOCC1)N1CCOCC1)c1ccc(OC)cc1 | inactive: 0.156% |
| O=C(Nc1cc([As](=O)(O)O)ccc1O)c1ccccc1 | inactive: -0.0059% |
| O=[N+]([O-])c1cccc(NC2=NCC(CBr)S2)c1 (stereo not given) | inactive: -0.0506% |
| O=C(O)CNc1ccc([As](=O)(O)O)cc1 | inactive: 0.172% |
| CC(C)(C)C(=O)NC(Sc1ccncn1)C(Cl)(Cl)Cl (stereo not given) | inactive: -0.663% |
| O=[N+]([O-])c1ncn(CCn2ncnc2[N+](=O)[O-])n1 | inactive: -0.719% |
| C[C@H]1OP(=O)(Oc2ccccc2)[C@H](O)[C@H](O)[C@H]1N=[N+]=[N-] (stereo not given in full) | inactive: -0.471% |
| O=P(Nc1nc2ccccc2s1)(c1ccccc1)c1ccccc1 | inactive: -1.1% |
| CN(C)C1(CNC(=O)c2ccc(Cl)c(S(N)(=O)=O)c2)CCCCC1 | inactive: 0.504% |
| O=P(Nc1ccccn1)(c1ccc(Br)cc1)c1ccc(Br)cc1 | inactive: -0.208% |
| C(Cc1nn[nH]n1)Cc1nn[nH]n1 | inactive: -1.56% |
| Nc1ccc([As](=O)(O)c2ccc([N+](=O)[O-])cc2)cc1 | inactive: -0.853% |
| O=C(OC1CN2CCC1CC2)c1cccc(Cl)c1 (stereo not given) | inactive: 0.344% |
| O=[N+]([O-])c1ncn(CCn2cnc([N+](=O)[O-])n2)n1 | inactive: -0.982% |
| CC(=O)NC(SC(=S)N(C)C)C(Cl)(Cl)Cl (stereo not given) | inactive: 12.6% |
| O=[N+]([O-])c1ccc(O)c(/C=N/Nc2ccc([N+](=O)[O-])cc2[N+](=O)[O-])c1 | inactive: -0.169% |

| Structure (SMILES) | activation |
| --- | --- |
| O=[As](O)(c1ccccc1)c1ccc(O)cc1 | inactive: 0.0373% |
| c1nnnn1CCn1cnnn1 | inactive: -0.13% |
| O=P(Nc1nccs1)(c1ccccc1)c1ccccc1 | inactive: 0.171% |
| CC(C)C(=O)NC(Sc1ccccc1)C(Cl)(Cl)Cl (stereo not given) | inactive: -0.286% |
| CC(C)(C)C(=O)NC(Sc1ccccc1)C(Cl)(Cl)Cl (stereo not given) | inactive: -0.38% |
| CCOc1ccc(C2=NCC(CBr)S2)cc1 (stereo not given) | inactive: 5.69% |
| O=P1(Nc2nc3ccc(Cl)cc3s2)COc2ccccc2O1 (stereo not given) | inactive: 0.286% |
| CC(=O)Nc1ccc(Oc2c([N+](=O)[O-])cc([N+](=O)[O-])cc2[N+](=O)[O-])cc1 | inactive: 0.187% |
| CC(=O)Nc1ccc([As](=O)(O)O)c(O)c1 | inactive: -0.0141% |
| CC(=O)c1ccc(N2CC2c2ccncc2)cc1 (stereo not given) | inactive: -0.178% |
| C[C@H]1OP(=O)(Oc2ccccc2)C[C@@H]2O[C@@H]21 (stereo not given in full) | inactive: -0.268% |
| C[C@@H]1C=CCP(=O)(Oc2ccccc2)O1 (stereo not given in full) | inactive: -1.05% |
| Cc1ccccc1CN(C)C(=O)COC(=O)C(O)(c1ccccc1)c1ccccc1 | inactive: 0.272% |
| O=C(NC1CCS(=O)(=O)C1)NP(=S)(Oc1ccccc1)Oc1ccccc1 (stereo not given) | inactive: 0.544% |
| CCNC(=S)/N=C(\N)N[N+](=O)[O-] | inactive: 0.307% |
| CCOC(=O)NC(Sc1ccccc1)C(Cl)(Cl)Cl (stereo not given) | inactive: 0.0328% |
| Cc1ccc(NP(=O)(Oc2cccc(C)c2)Oc2cccc(C)c2)nc1 | inactive: -0.226% |
| c1ccc(-c2nn[nH]n2)c(-c2nn[nH]n2)c1 | inactive: 10.9% |
| O=c1c2cc([N+](=O)[O-])ccc2[nH]c2c([N+](=O)[O-])cc([N+](=O)[O-])cc12 | inactive: 0.165% |
| CN(C)C(=O)Oc1noc2ccccc12 | inactive: -0.421% |
| CC(NC(=O)COC(=O)C(O)(c1ccccc1)c1ccccc1)c1ccccc1 (stereo not given) | inactive: 0.226% |
| Cc1ccccc1OP(=O)(Nc1ccccn1)Oc1ccccc1C | inactive: -0.264% |
| Cc1ccc(OP(=O)(Nc2ccccn2)Oc2ccc(C)cc2)cc1 | inactive: 3.6% |
| CC(=O)NC(SC(=S)N(CC(C)C)CC(C)C)C(Cl)(Cl)Cl (stereo not given) | inactive: -0.773% |
| COC(=O)c1cc2c(s1)N=C(c1ccccc1)N(C)P2(=O)N1CCOCC1 (stereo not given) | inactive: 0.147% |
| CCC(=O)N1C2C3N(C(=O)CC)C1C1N(C(=O)CC)C(C(N1C(=O)CC)N3C(=O)CC)N2C(=O)CC | inactive: 0.05% |
| O=C(OC1CN2CCC1CC2)c1ccccc1 (stereo not given) | inactive: 0.0537% |

Source: PubChem BioAssay AID492947 (National Center for Advancing Translational Sciences (NCATS), 2010)
